## Measured affinities in a library of Ab-14 heavy chain variants

Values reported by Li et al. 2023, doi:10.1038/s41467-023-39022-2 (FLAb copy).

All variants were tested on one target, the spike HR2 peptide PDVDLGDISGINAS (SARS-CoV-2).

Parent scFv Ab-14: VH joined to VL by a (GGGGS)3 linker. Changes lie in the heavy chain CDRs alone.
VH: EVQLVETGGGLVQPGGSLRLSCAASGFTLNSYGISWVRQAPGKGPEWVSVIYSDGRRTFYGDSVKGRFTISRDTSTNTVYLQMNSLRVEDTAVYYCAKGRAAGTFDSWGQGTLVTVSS
VL: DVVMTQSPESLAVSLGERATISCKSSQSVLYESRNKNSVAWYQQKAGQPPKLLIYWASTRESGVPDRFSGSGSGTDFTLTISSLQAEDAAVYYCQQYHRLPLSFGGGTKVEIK

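These sequences belong to a second round, designed from the earlier measurements on random variants of the parent. Group labels follow the data file (Ctrl: baseline library sampled from a position-specific scoring matrix, with some repeated check sequences; Rand: our label for a block that the file lists under HC and that is probably the random mutants of the ten best first-round binders; En: ensemble of fine-tuned language models; GP: Gaussian process model; GPLM: also part of the Gaussian process libraries; HC: hill climbing; Gen: genetic algorithm; Gibbs: Gibbs sampling; a sequence that several methods proposed may carry one label only). In AlphaSeq, yeast of one mating type display the scFv and yeast of the other type display the target. Pairs that bind mate more often; barcode pairs of the diploids are counted by sequencing. Scores were corrected for input abundance and mapped to Kd with protein pairs of known affinity run in the same pool. Mating was done six times.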

Each variant is given by its three heavy chain CDRs, as the data file delimits them; those of the parent are GFTLNSYGIS, VIYSDGRRTFYGDSVK, GRAAGTFDS. Numbers give log10(Kd / nM), so 0 is 1 nM and 3 is 1 µM. Smaller is tighter. A mean of the replicates is given; it leaves out those without a signal. "no signal" means that the variant was in the library but no mating with the target was seen in any replicate; the authors take this as a sign of poor binding, and no number exists. Background: pairings of all heavy chain designs with three empty control strains gave a value in 1% of cases (median 2.08, 5th percentile 0.84). Values in that range, when seen in few replicates, are hard to tell from nonspecific mating. The parent sequence was in this pool as ten entries: three were never detected, three once, and four in most replicates, with averages from 0.34 to 2.37. In the paper, a design with two or fewer of six values counts as a poor binder. The range of this assay differs from that of the first round, and the authors advise against merging the two.

| CDR-H1 | CDR-H2 | CDR-H3 | group | mean, log10 nM | seen in |
|---|---|---|---|---|---|
| GFTLNDYGIS | VIYSDGRRCFYGDSVK | GRAALTKIS | Rand | no signal | 0/6 |
| GFDLEDYGIS | VIYADGRRTAYADSVK | GETAGTFDV | En_HC | 0.39 | 6/6 |
| GFTLKSYGIS | VIYSDGRRTFYGDSVK | GRAAVTFDQ | GP_HC | no signal | 0/6 |
| GFSLEEYGIS | VIYADGKRTFYTNAVK | GTWGVFGLG | En_Gibbs | no signal | 0/6 |
| GFDLNEYGIS | VIYADGVRTAYADDVK | GNVAGTFDL | En_Gen | -0.51 | 6/6 |
| GMDLGEYGIS | VIYADGERASYTNNFK | GVSAGTLTV | En_Gibbs | 0.83 | 1/6 |
| GFSLNSYGIS | VIYSDGRRTVYGDSVK | GRAAGTFDS | GPLM_Gen | 0.97 | 5/6 |
| GFDINEYGIS | VIYADGSRQAYADTVK | GSWGCVFYV | En_Gibbs | no signal | 0/6 |
| GADINEYGIS | VIYADGNRIAYQDQVK | GTLAGSFDI | En_Gibbs | -0.30 | 6/6 |
| GFDLEEYGIS | VIYADGQRTAYSDSVK | GNVAGTFDL | En_Gen | -0.38 | 6/6 |
| GFTLNDQGIS | VIYSDGLRTFYGDSVK | GRAAGTFDS | Ctrl | 0.34 | 2/6 |
| GFTLNEMGIS | VIYSDGRRTFYGDSVK | GRAAVTFDT | GP_HC | no signal | 0/6 |
| GEDLLEYGIS | VIYADGIRVAYTNQVK | GNEAGFFTL | En_Gibbs | no signal | 0/6 |
| GFDLNEYGIS | VIYADGRRTAYADSVK | GSNAGTFDM | En_Gen | -0.13 | 6/6 |
| GFDLNEYGIS | VIYADGMRTAYIDSVK | GEAAGTFDK | En_HC | 0.44 | 6/6 |
| GFILNEYGIS | VIYSDGRRTFYGDSVK | GRTAGTFDS | GPLM_Gen | 0.63 | 3/6 |
| GFTLNEYGIS | VIYSDGRRTFYSDSVK | GQGAGTFDS | GP_HC | 1.60 | 6/6 |
| GFALNSYGIS | VIYSDGMRTFYGDSVK | GRAAGTSDS | Ctrl | 2.01 | 4/6 |
| GFGLNSYGIS | VIYSDGRRTFYIDSVK | GWTAGTFDS | GPLM_Gibbs | 0.74 | 3/6 |
| GFKLNSYGIS | VIYSDGRRTFYLDSVK | GLLAGTFDS | GP_HC | 2.15 | 4/6 |
| GFDLNEYGIS | VIYADGMRTFYSDSVK | GQSAGTFDA | En_HC | -0.33 | 6/6 |
| KFSLNSYGIS | VIYADGRRTFYGDSVK | GQAAGTFDS | GPLM_Gen | 0.18 | 6/6 |
| GFQLNEYGIS | VIYSDGRRTFYGDSVK | GRSAGTFDS | GP_Gen | no signal | 0/6 |
| GFDLNEYGIS | VIYADGKRTYYADSVK | GNVAGTFDL | En_Gen | 0.02 | 6/6 |
| GFDLDEYGIS | VIYADGMRSAIRESVK | GEISGTLDA | En_Gibbs | 0.68 | 6/6 |
| GFWLNSYGIS | VIYSDGRRTFYIDKVK | GYTAGTFDS | Ctrl | 1.89 | 1/6 |
| GFTLNSYGIS | VIYSDGRRTFYGDSVK | GRYAGTFDS | Ctrl | 2.00 | 1/6 |
| GFSLDEYGIS | VIYADGKRTFYADSVK | GNVAGTFDV | En_HC | 0.64 | 6/6 |
| GFSLNSYGIS | VIYSDGRRTFYADSVK | GHAAGTFDT | GPLM_Gen | -0.27 | 6/6 |
| GFTLNSYGIS | VIYSDGRRTFYRDAVK | GRAAGTFDS | Ctrl | no signal | 0/6 |
| GFSLNEYGIS | VIYSDGRRTFYDDSVK | GRFAGTFDS | GPLM_HC | no signal | 0/6 |
| GFELNSYGIS | VIYSDGRRTFYSDSVK | GRTAGTFDT | GP_Gen | -0.15 | 6/6 |
| GFDLNEYGIS | VIYADGQRTSYADSVK | GNVAGTFDV | En_Gen | 0.09 | 6/6 |
| GFDLNSYGIS | VIYSDGRRTFYGDSVK | GCQAGTFDS | GP_Gen | 0.74 | 6/6 |
| GFDLNSYGIS | VIYSDGLRTFYGDSVK | GNAAGTFDS | GP_Gibbs | 1.08 | 6/6 |
| GFELNMYGIS | VIYSDGRRTFYADSVK | GQAAGTFDS | GPLM_Gen | 0.57 | 6/6 |
| GFDLNSYGIS | VIYSDGRRTFYGDAVK | GREAGTFDS | GP_Gen | -1.14 | 1/6 |
| GFTLNSYGIS | VIYSDGRRVFYGDSVK | GRAAGTSDS | Ctrl | 1.58 | 1/6 |
| GFHLNDYGIS | VIYSDGRRTFYIDSVK | GRAAGTFDS | GPLM_HC | 0.63 | 5/6 |
| GFDLNEYGIS | VIYADGKRTAYADDVK | GNTAGTFDI | En_Gen | -0.50 | 6/6 |
| GFTLNSYGIS | VIYADGRRTFYSDSVK | GRAPATFDS | Ctrl | 1.92 | 2/6 |
| GFDLNEYGIS | VIYADGRRTAYADSVK | GVNAGTFDV | En_Gen | -0.22 | 6/6 |
| GESLLEYGIS | VIYADGSRVAYTNAVK | GNLAGAFDV | En_Gibbs | 1.71 | 5/6 |
| GFDLNEYGIS | VIYADGRRTFYADSVK | GAVAGTFDK | En_HC | -0.86 | 6/6 |
| GFDLNEYGIS | VIYADGMRKAYADDVK | GGNAGTFDV | En_Gen | -0.78 | 5/6 |
| GFDLNEYGIS | VIYADGSRTAYADSVK | GETAGTFDI | En_Gen | -0.39 | 6/6 |
| GNTLNKYGQS | VIYSDGRRTFYDDSVK | GQLAGTFDS | Rand | no signal | 0/6 |
| GRDIEEYGIS | VIYADGVRTVYHDSVK | GQNAGFFIT | En_Gibbs | no signal | 0/6 |
| KFTLNEYGIS | VIYSDGRRTFYGDSVK | GRAAVTFDQ | GP_HC | no signal | 0/6 |
| GFDLNSYGIS | VIYSDGRRTFYVDSVK | GKAAGTFDV | GP_Gen | 0.64 | 6/6 |
| GFSLNEYGIS | VIYSDGRRTFYIDSVK | GKAAGTFDS | GPLM_Gen | 0.23 | 6/6 |
| GFDLNEYGIS | VIYADGLRTAYADSVK | GNVAGTFDQ | En_Gen | -0.28 | 6/6 |
| GFTLNQYGIS | VIYSDGRRTFYLDSVA | GRAAGTFDS | Ctrl | 1.79 | 4/6 |
| FQLLDDYGIS | VIYADGKRVAYVADVK | GNVAGTFDM | En_Gibbs | 1.62 | 6/6 |
| GFTLNSYGIS | VIYSDGRRTFYLDSVK | GRAAGTMDS | Ctrl | no signal | 0/6 |
| GKKLDEYGIS | VIYADGKRNFYSNSVK | GQHDGGLFV | En_Gibbs | no signal | 0/6 |
| GFNLNEYGIS | VIYADGMRTFYSDSVK | GETAGTFDV | En_HC | -0.58 | 6/6 |
| GFDLNEYGIS | VIYADGRRTAYSDSVK | GEAAGTFDI | En_HC | 1.03 | 6/6 |
| GFDLNEYGIS | VIYADGMRTSYADSVK | GQNAGTFDQ | En_HC | -0.40 | 5/6 |
| GFDLNEYGIS | VIYADGRRTFYADSVK | GTAAGTFDI | En_HC | -0.55 | 6/6 |
| GFTLNEYGIS | VIYSDGRRTFYGDSVK | GRYAGTFDS | GPLM_Gen | 0.84 | 6/6 |
| GTDLNSYGIS | VIYSDGRRTFYGDSVK | GRAAGTFDS | Ctrl | no signal | 0/6 |
| GFTLNDYGIS | VIYSDGRRTQYIDSLK | GRAAGTFDS | Rand | no signal | 0/6 |
| KFSLNDYGIS | VIYSDGRRTFYGDSVK | GQTAGTFDS | GP_Gibbs | 0.57 | 6/6 |
| GTTLNSYGIS | VIYSDGRRTIYGDSVK | GKAAGRFDS | Ctrl | no signal | 0/6 |
| GFDLNEYGIS | VIYADGRRTSYADSVK | GQLAGTFDF | En_HC | -0.54 | 6/6 |
| GFNLDEYGIS | VIYADGRRTFYSDNVK | GEVGGTFDI | En_HC | 0.01 | 6/6 |

Top 6 of the variants detected in all replicates, tightest first:

CDR-H1,CDR-H2,CDR-H3,group,"mean, log10 nM",seen in
GFDLNEYGIS,VIYADGRRTFYADSVK,GAVAGTFDK,En_HC,-0.86,6/6
GFNLNEYGIS,VIYADGMRTFYSDSVK,GETAGTFDV,En_HC,-0.58,6/6
GFDLNEYGIS,VIYADGRRTFYADSVK,GTAAGTFDI,En_HC,-0.55,6/6
GFDLNEYGIS,VIYADGRRTSYADSVK,GQLAGTFDF,En_HC,-0.54,6/6
GFDLNEYGIS,VIYADGVRTAYADDVK,GNVAGTFDL,En_Gen,-0.51,6/6
GFDLNEYGIS,VIYADGKRTAYADDVK,GNTAGTFDI,En_Gen,-0.50,6/6